Columns and labels:
[1] = biological target: Recombinant human soluble BACE-1 catalytic domain (Homo sapiens (Human), UniProt P56817); assay: BACE-1 Ki Assay (BACE-1 HTRF FRET Assay); conditions: read-out: BACE1 Ki; Table 1; Ki calculated from IC50 with Cheng-Prusoff equation
Procedure: Assay 1: BACE-1 Ki Assay (BACE-1 HTRF FRET Assay)
The compounds of the invention were assessed for their ability to inhibit BACE-1 using the following assay.
The following reagents were used in this assay. Na^+-Acetate pH 5.0; 1% Brij-35; Glycerol; Dimethyl Sulfoxide (DMSO); Recombinant human soluble BACE-1 catalytic domain (>95% pure); APP Swedish mutant peptide substrate (QSY7-APP^swe-Eu): QSY7-EISEVNLDAEFC-Europium-amide.
A homogeneous time-resolved FRET assay can be used to determine IC50 values for inhibitors of the soluble human BACE-1 catalytic domain. This assay monitors the increase of 620 nm fluorescence that resulted from BACE-1 cleavage of an APPswedish APP^swe mutant peptide FRET substrate (QSY7-EISEVNLDAEFC-Europium-amide). […] In the absence of enzyme activity, 620 nm fluorescence is low in the assay and increased linearly over 3 hours in the presence of uninhibited BACE-1 enzyme. Inhibition of BACE-1 cleavage of the QSY7-APP^swe-Eu substrate by inhibitors is manifested as a suppression of 620 nm fluorescence.
Varying concentrations of inhibitors at 3× the final desired concentration in a volume of 10 ul are preincubated with purified human BACE-1 catalytic domain (3 nM in 10 μl) for 30 minutes at 30° C. in reaction buffer containing 20 mM Na-Acetate pH 5.0, 10% glycerol, 0.1% Brij-35 and 7.5% DSMO. […] The example compounds of the invention were measured in this assay.

Sequences of proteins named here, by UniProt entry; tags and fusion partners are left off. Residues count along the entry.
UniProt P56817, 75-416 limits assumed: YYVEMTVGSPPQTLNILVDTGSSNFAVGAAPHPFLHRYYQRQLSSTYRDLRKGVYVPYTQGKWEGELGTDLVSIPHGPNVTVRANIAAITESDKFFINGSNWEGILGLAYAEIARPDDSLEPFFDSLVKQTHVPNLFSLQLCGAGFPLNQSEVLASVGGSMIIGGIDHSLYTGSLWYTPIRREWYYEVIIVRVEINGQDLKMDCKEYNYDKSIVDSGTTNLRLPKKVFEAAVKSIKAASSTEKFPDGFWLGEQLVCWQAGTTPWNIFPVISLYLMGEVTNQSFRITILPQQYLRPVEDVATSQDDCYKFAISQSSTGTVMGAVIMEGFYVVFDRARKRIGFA
UniProt Q9Y5Z0, 63-473 limits assumed: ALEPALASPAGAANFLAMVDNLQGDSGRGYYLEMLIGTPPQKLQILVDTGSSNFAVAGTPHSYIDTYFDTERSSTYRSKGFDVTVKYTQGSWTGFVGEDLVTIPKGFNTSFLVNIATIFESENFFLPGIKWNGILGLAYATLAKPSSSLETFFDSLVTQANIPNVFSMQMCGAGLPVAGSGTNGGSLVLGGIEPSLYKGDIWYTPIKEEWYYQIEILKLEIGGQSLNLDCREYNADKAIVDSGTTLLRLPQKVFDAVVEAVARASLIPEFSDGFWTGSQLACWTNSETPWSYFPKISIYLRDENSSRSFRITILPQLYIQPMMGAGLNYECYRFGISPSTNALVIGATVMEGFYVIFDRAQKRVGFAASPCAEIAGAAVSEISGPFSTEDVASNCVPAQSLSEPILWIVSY

[2] = biological target: purified human autoBACE-2 (Homo sapiens (Human), UniProt Q9Y5Z0); assay: BACE-2 Assay (BACE-HTRF assay); conditions: read-out: BACE2 Ki; Table 1; Ki calculated from IC50 with Cheng-Prusoff equation
Procedure: Inhibitor IC50s, at purified human autoBACE-2 are determined in a time-resolved endpoint proteolysis assay that measures hydrolysis of the QSY7-EISEVNLDAEFC-Eu-amide FRET peptide substrate (BACE-HTRF assay). BACE-mediated hydrolysis of this peptide results in an increase in relative fluorescence (RFU) at 620 nm after excitation with 320 nm light. Inhibitor compounds, prepared at 3× the desired final concentration in 1× BACE assay buffer (20 mM sodium acetate pH 5.0, 10% glycerol, 0.1% Brij-35) supplemented with 7.5% DMSO are pre-incubated with an equal volume of autoBACE-2 enzyme diluted in 1×BACE assay buffer (final enzyme concentration 1 nM) in black 384-well NUNC plates for 30 minutes at 30° C. […] Following laser excitation of sample wells at 320 nm, the fluorescence signal at 620 nm is collected for 400 ms following a 50 μs delay on a RUBYstar HTRF plate reader (BMG Labtechnologies). […] IC50 values are determined by nonlinear regression analysis (sigmoidal dose response, variable slope) of percent inhibition data with minimum and maximum values set to 0 and 100 percent respectively. […] The Ki values are calculated from the IC50 using the Cheng-Prusoff equation.

Structure (SMILES): COc1cnc2c(Nc3cc([C@]4(C)CS(=O)(=O)N(C)C(=N)N4)c(F)cn3)nccc2n1
- Ki [1]: 19.3 nM
- Ki [2]: 6.9 nM

Source: patent US10071998B2, “Iminothiadiazine dioxides bearing an amine-linked substituent as BACE inhibitors, compositions, and their use” (Merck Sharp & Dohme Corp., priority 2015, dated 2018)
